# Source: patent US11447505B1, “Pyrrolo[2,3-b]pyridine compounds and their use in the treatment of cancer” (priority 2017, dated 2022)
# What was measured:
# [1] = test system: kinase targets listed in tables 3 and 4; details: relative to MRCKβ Ki
# [2] = Skin and blood compound concentrations after topical application to FVB mice
smiles,measurement,setting,value
"c1cc(-c2c[nH]c3nccc(N4CCC[C@@]5(CCCCN5)C4)c23)ncn1 [Example E117, (6S)-8-(3-pyrimidin-4-yl-1H-pyrrolo[2,3-b]pyridin-4-yl)-1,8-diazaspiro[5.5]undecane]",Fold selectivity MRCKβ,[1]; MRCKβ,1
same,Fold selectivity ROCK1,[1]; ROCK1,39
same,Fold selectivity STK22D,[1]; STK22D,99
same,"concentration in blood, repeated 25 μg doses relative to single 10 μg dose",[2],4 fold
same,"concentration in skin, repeated 25 μg doses relative to single 10 μg dose",[2],2.8 fold
